This note sets out measurements from PubChem BioAssay AID720702 (The Scripps Research Institute Molecular Screening Center, 2013).

Amino acid sequences for entries named in this document (tags omitted). A change or cut given only in a name is not applied to a line headed by its entry.
UniProt O95551: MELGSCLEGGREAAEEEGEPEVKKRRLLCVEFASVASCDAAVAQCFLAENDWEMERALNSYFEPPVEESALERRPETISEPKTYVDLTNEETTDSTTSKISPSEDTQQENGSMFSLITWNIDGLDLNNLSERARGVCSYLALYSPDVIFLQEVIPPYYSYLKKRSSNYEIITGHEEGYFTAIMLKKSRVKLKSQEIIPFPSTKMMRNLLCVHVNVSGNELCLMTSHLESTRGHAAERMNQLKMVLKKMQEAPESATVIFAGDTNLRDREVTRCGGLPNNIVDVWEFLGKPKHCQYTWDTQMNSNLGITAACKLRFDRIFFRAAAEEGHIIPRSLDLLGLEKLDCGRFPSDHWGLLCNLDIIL

SMILES strings stand for the structures. The entries are a selection whose mix differs from that of the whole data set. Calls of active or inactive are those of the source.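 Rule for the calls: active = inhibition above the mean of all tested compounds plus 3 SD, set per campaign (cut at about 25% in these data); inactive = the rest.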

The assay deals with Tyrosyl-DNA phosphodiesterase 2 (Homo sapiens) (UniProt O95551). The experiment in a line: blockers of TDP2 phosphodiesterase activity – biochemical, epi absorbance, recombinant enzyme, primary screen (AID 720702).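 Note: 0% = DMSO with enzyme and 100% = buffer with substrate but no TDP2.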 To be noted: recombinant TDP2, T5PNP hydrolysis, p-nitrophenol absorbance 415 nm; at 12.8 µM; hits give high values. The gist of the method:
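Material: recombinant human TDP2; quantity: TDP2 enzyme at 120 nM final; medium: Tris-HCl pH 7.5 with MgCl2; compound: single concentration, 12.8 µM nominal, with 1% DMSO; incubation: 2 h enzyme incubation at 37 °C; signal: epi absorbance; measure: percent inhibition; benchmarks: high control without enzyme, low control DMSO plus TDP2; repeats: singlicate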
What is called inhibition is the relative decrease from the control value, in per cent. With `O=P1(Nc2nc3ccc(Cl)cc3s2)COc2ccccc2O1` (stereo not given), the inhibition was inactive: -1.82%. In the case of `CCOc1ccc(C2=NCC(CBr)S2)cc1` (stereo not given) it was inactive: -0.04%; in that of `CCc1cc(O)c([N+](=O)[O-])c(C)c1[N+](=O)[O-]`, inactive: -9.66%; in that of `CC(C)(C)C(=O)NC(Sc1ccccc1)C(Cl)(Cl)Cl` (stereo not given), inactive: 1.58%. For `CC(=O)c1ccc(N2CC2c2ccncc2)cc1` (stereo not given) the value was active: 24.8%; for `N#C/C(=C\c1ccc(N(CCBr)CCBr)cc1)C(N)=O`, inactive: -3.86%. For `COC(=O)C1(C)COP(=O)(NCc2ccccc2)OC1` (stereo not given) the value was inactive: -0.79%. `Cc1ccccc1CN(C)C(=O)COC(=O)C(O)(c1ccccc1)c1ccccc1`: the inhibition is inactive: -3.38%. Regarding `C[C@H]1OP(=O)(Oc2ccccc2)C[C@@H]2O[C@@H]21` (stereo not given in full), the inhibition is inactive: 0.49%.

For `C[C@@H]1C=CCP(=O)(Oc2ccccc2)O1` (stereo not given in full), the inhibition was inactive: -10.1%.

As to `CC(=O)Nc1ccc([As](=O)(O)O)c(O)c1`, the inhibition is inactive: 3.23%. In the case of `CC(=O)Nc1ccc(Oc2c([N+](=O)[O-])cc([N+](=O)[O-])cc2[N+](=O)[O-])cc1` it was inactive: -5.56%; in that of `CCNC(=S)/N=C(\N)N[N+](=O)[O-]`, inactive: 7.15%. Consider `O=C(NC1CCS(=O)(=O)C1)NP(=S)(Oc1ccccc1)Oc1ccccc1` (stereo not given), for which the inhibition is inactive: -0.06%. In the case of `c1ccc(-c2nn[nH]n2)c(-c2nn[nH]n2)c1` it was inactive: 8.41%; in that of `Cc1ccc(NP(=O)(Oc2cccc(C)c2)Oc2cccc(C)c2)nc1`, inactive: 8.65%; in that of `O=P1(N(CCCl)CCCl)OCCC2CCCCN21` (stereo not given), inactive: 2.04%. In the case of `COC(=O)c1cc2c(s1)N=C(c1ccccc1)N(C)P2(=O)N1CCOCC1` (stereo not given) it was inactive: -3.36%; in that of `Cc1ccc(OP(=O)(Nc2ccccn2)Oc2ccc(C)cc2)cc1`, inactive: -12.3%; in that of `CC(=O)NC(SC(=S)N(CC(C)C)CC(C)C)C(Cl)(Cl)Cl` (stereo not given), inactive: 8.13%. On to `O=C(OC1CN2CCC1CC2)c1ccccc1` (stereo not given), for which the inhibition was inactive: -3.11%. In the case of `CCC(=O)N1C2C3N(C(=O)CC)C1C1N(C(=O)CC)C(C(N1C(=O)CC)N3C(=O)CC)N2C(=O)CC` it was inactive: -3.63%. For `CC(NC(=O)COC(=O)C(O)(c1ccccc1)c1ccccc1)c1ccccc1` (stereo not given), the inhibition was inactive: -6.98%. In the case of `Cc1ccccc1OP(=O)(Nc1ccccn1)Oc1ccccc1C` it was inactive: -18.1%. On to `O=c1c2cc([N+](=O)[O-])ccc2[nH]c2c([N+](=O)[O-])cc([N+](=O)[O-])cc12`, for which the inhibition is inactive: 12.7%. In the case of `CN(C)C(=O)Oc1noc2ccccc12` it was inactive: -1.05%. For `COc1ccc(N)c([N+](=O)[O-])c1[N+](=O)[O-]` the value was inactive: -8.6%. Turning to `Nc1ccc(CCCCOc2ccccc2)cc1`, the inhibition was inactive: -3.56%. For `O=P(Nc1ccccn1)(c1ccc(Br)cc1)c1ccc(Br)cc1` the value was inactive: 8.03%; for `CN(C)C1(CNC(=O)c2ccc(Cl)c(S(N)(=O)=O)c2)CCCCC1`, inactive: 4.8%; for `O=P(Nc1nc2ccccc2s1)(c1ccccc1)c1ccccc1`, inactive: 13%. In the case of `C[C@H]1OP(=O)(Oc2ccccc2)[C@H](O)[C@H](O)[C@H]1N=[N+]=[N-]` (stereo not given in full) it was inactive: 15.7%; in that of `O=[N+]([O-])c1ncn(CCn2cnc([N+](=O)[O-])n2)n1`, inactive: 12%. `CC(=O)NC(SC(=S)N(C)C)C(Cl)(Cl)Cl` (stereo not given): the inhibition was inactive: 5.53%. With `O=[As](O)(c1ccccc1)c1ccc(O)cc1`, the inhibition is inactive: -6.36%. As to `C/C(N)=N\P(=O)(OCc1ccccc1)OCc1ccccc1`, the inhibition is inactive: -1.25%. As for `C(Cc1nn[nH]n1)Cc1nn[nH]n1`, the inhibition is inactive: 5.12%. In the case of `Nc1ccc([As](=O)(O)c2ccc([N+](=O)[O-])cc2)cc1` it was inactive: 10.7%; in that of `O=C(OC1CN2CCC1CC2)c1cccc(Cl)c1` (stereo not given), inactive: -5.21%; in that of `CC(C)C(=O)NC(Sc1ccccc1)C(Cl)(Cl)Cl` (stereo not given), inactive: 10.2%. For the compound `O=P(Nc1nccs1)(c1ccccc1)c1ccccc1`, the inhibition was inactive: 6.67%. On to `c1nnnn1CCn1cnnn1`, for which the inhibition was inactive: -2.96%.

On to `COc1ccc(C2=NCC(CBr)S2)cc1` (stereo not given), for which the inhibition is inactive: 16%. In the case of `O=[N+]([O-])c1cccc2n[nH]nc12` it was inactive: -7.28%; in that of `CC(=O)N1C2C3N(C(C)=O)C1C1N(C(C)=O)C(C(N1C(C)=O)N3C(C)=O)N2C(C)=O`, inactive: -0.98%. In the case of `Cc1ccc(NP(=O)(Oc2ccccc2)Oc2ccccc2)nc1` it was inactive: -20.1%. For `CCc1nc2c(n1)c1c(non1O)c1c2no[n+]1[O-]`, the inhibition is inactive: -2.06%. For `O=[N+]([O-])c1cc([N+](=O)[O-])c(CCNc2ccccc2)c([N+](=O)[O-])c1` the value was inactive: -5.06%; for `Nc1ccc([As](=O)(O)c2ccc(N)cc2)cc1`, inactive: -2.4%. For `C[N+]1=C2C=CC=CC=C2SC12C([N+](=O)[O-])=CC([N+](=O)[O-])=C[C-]2[N+](=O)[O-]` (stereo not given) the value was inactive: 20.5%; for `CCN(/C(=N/P(=O)(N1CCOCC1)N1CCOCC1)N1CCOCC1)c1ccc(OC)cc1`, inactive: 5.53%. For `CC(C)c1nc(Nc2ccccc2)n(P(=O)(N(C)C)N(C)C)n1` the value was inactive: -16.8%; for `CC(C)=N/N=C(\N)N[N+](=O)[O-]`, inactive: 1.18%. Take `CN(C)C(=O)OCCc1n(C)cc[n+]1C`: the inhibition is inactive: 15.1%.

With `CC1CCN(C(=O)Oc2c(Cl)cc(Cl)c3cccnc23)CC1`, the inhibition is inactive: 6.28%. For `c1cc(-c2nn[nH]n2)ccc1-c1nn[nH]n1` the value was inactive: -2.08%. For `O=P1(N(CCCl)CCCl)OCCCS1` (stereo not given), the inhibition was inactive: 7.64%. Turning to `O=C(Nc1cc([As](=O)(O)O)ccc1O)c1ccccc1`, the inhibition is inactive: -9.7%.

Regarding `CC(C)(C)C(=O)NC(Sc1ccncn1)C(Cl)(Cl)Cl` (stereo not given), the inhibition is inactive: -13.2%.

In the case of `O=[N+]([O-])c1ncn(CCn2ncnc2[N+](=O)[O-])n1`, the inhibition is inactive: 5.26%. As for `COC(=O)C1(C)COP(=O)(Nc2ccccc2)OC1` (stereo not given), the inhibition was inactive: 6.35%. `O=[N+]([O-])c1cccc(NC2=NCC(CBr)S2)c1` (stereo not given): the inhibition is inactive: -4.82%. For `O=C(O)CNc1ccc([As](=O)(O)O)cc1` the value was inactive: 3.15%. On to `CC(=O)Nc1ccc([As](=O)(O)O)cc1`, for which the inhibition is inactive: 1.37%. For `O=C(O)c1ccccc1[As](=O)(O)O`, the inhibition is inactive: 13.2%.
